One test concerns the target METTL3/14 (Homo sapiens, UniProt Q86U44). The experiment in a line: Fluorescence polarization (FP) displacement assay with METTL3/14. To be noted: read-out: KD METTL3; binary affinity; 300 nM METTL3/14, 20 nM STM-FL tracer. A general note: In fluorescence polarisation assays a small probe gives low polarisation when free and higher when bound to something large.
In the next test the target is human CRBN (Homo sapiens, UniProt Q96SW2). The experiment in a line: HTRF human CRBN binding kit. To be noted: read-out: KD E3-ligases (CRBN); HTRF Human Cereblon Binding Kit, binary. How it is done:
(§1) PROTACs binding to VHL or CRBN were measured using a homogeneous time-resolved fluorescence (HTRF) human VHL or CRBN binding kit (Revvity). Samples were prepared according to the manufacturer's protocol, with compounds diluted in the provided diluent while maintaining a constant DMSO concentration with a final concentration of 1.25%. For the ternary KD determinations, METTL3/14 was added at 4 μM, corresponding to approximately a 20- to 40-fold excess of binary KD, while all other component concentrations were kept as specified in the protocol. Measurements were performed in triplicate using a Tecan Spark 10 M plate reader, recording donor and acceptor emissions at λem_donor = 620 nm and λem_acceptor = 665 nm, respectively, following excitation of the HTRF donor at λex = 320 nm. The acceptor-to-donor emission ratio was calculated as ratio = signal 665 nm/signal 620 nm. Using GraphPad Prism 8.0.1, the fluorescence values were normalized, and KD values were calculated as specified above.

Protein sequences, listed by entry. Tags and fused reporters are not part of them. Residues count along the entry.
UniProt Q86U44, 252-580 limits assumed: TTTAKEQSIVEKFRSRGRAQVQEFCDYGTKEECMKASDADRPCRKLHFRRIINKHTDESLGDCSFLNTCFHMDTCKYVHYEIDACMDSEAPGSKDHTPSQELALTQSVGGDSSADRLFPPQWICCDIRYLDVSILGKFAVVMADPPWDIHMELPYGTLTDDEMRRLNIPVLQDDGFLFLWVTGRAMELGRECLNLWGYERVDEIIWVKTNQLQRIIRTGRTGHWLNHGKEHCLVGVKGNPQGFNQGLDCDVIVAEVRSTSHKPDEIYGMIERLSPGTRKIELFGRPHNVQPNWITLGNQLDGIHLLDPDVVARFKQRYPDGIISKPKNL
UniProt Q96SW2, whole entry: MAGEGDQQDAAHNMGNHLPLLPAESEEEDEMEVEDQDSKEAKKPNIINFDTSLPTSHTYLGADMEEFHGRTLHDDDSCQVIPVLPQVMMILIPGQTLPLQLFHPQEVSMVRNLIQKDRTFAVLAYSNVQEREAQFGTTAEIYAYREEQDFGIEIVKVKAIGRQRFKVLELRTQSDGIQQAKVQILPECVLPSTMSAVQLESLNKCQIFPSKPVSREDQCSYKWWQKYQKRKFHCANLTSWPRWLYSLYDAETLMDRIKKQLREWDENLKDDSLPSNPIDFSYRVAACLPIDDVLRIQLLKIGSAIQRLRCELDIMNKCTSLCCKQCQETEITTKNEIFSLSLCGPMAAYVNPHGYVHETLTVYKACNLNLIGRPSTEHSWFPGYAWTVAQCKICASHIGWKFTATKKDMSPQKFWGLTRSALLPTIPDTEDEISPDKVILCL
UniProt P40337, whole entry: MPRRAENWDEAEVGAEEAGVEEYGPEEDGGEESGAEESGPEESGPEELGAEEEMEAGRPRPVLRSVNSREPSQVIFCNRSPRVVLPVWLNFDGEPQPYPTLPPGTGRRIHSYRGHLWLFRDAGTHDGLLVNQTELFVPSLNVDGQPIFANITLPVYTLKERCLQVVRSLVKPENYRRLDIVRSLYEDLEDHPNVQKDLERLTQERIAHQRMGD
UniProt Q9HCE5, 108-444 partner limits assumed: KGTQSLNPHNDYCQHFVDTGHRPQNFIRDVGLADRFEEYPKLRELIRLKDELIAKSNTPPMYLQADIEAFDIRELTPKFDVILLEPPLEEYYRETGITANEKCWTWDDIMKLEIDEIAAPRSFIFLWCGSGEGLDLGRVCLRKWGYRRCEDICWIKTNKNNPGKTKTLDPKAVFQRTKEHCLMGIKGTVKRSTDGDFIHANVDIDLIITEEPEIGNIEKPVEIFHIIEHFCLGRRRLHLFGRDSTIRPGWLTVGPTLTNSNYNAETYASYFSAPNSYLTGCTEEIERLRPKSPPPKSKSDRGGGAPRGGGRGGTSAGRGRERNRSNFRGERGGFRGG
UniProt Q15370, whole entry partner: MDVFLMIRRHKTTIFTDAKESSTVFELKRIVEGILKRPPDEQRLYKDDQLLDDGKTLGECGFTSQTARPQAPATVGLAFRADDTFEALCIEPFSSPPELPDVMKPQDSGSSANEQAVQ
UniProt Q15369, whole entry partner: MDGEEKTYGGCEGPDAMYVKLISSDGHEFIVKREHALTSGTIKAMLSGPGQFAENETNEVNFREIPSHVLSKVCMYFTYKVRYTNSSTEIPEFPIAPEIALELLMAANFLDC

Another test deals with human VHL (Homo sapiens, UniProt P40337). The experiment in a line: HTRF human VHL binding kit. Conditions: read-out: KD E3-ligases (VHL, HTRF), binary. On the procedure: as §1
For orientation: In TR-FRET formats the signal depends on donor and acceptor labels being close together.

By Kd is commonly meant the free concentration of one partner at which half of the binding sites on the other are occupied at equilibrium, for simple one-to-one binding. On to `COCCOCCOCCOCCNCc1nc2ccc(CNC(=O)c3cc(=O)n4ccccc4n3)cc2[nH]1`, for which the Kd at METTL3/14 is 10.4 µM. Same read-out and setting: under `Cc1ncsc1-c1ccc(CNC(=O)[C@@H]2C[C@@H](O)CN2C(=O)[C@H](C(C)C)N2Cc3ccccc3C2=O)c(OCCOCCOCCNCc2nc3ccc(CNC(=O)c4cc(=O)n5ccccc5n4)cc3[nH]2)c1` stands 4.41 µM; under `Cc1ncsc1-c1ccc(CNC(=O)[C@@H]2C[C@@H](O)CN2C(=O)[C@@H](NC(=O)C2CCN(C(=O)c3ccc(-c4cc(-c5cn(Cc6cn7cc(CN8CCC(C)(C)CC8)ccc7n6)nn5)c5cn[nH]c5c4)cc3)CC2)C(C)(C)C)cc1`, 0.223 µM. As for `O=C1CCC(N2C(=O)c3ccc(OCCOCCOCCOCCNCc4nc5ccc(CNC(=O)c6cc(=O)n7ccccc7n6)cc5[nH]4)cc3C2=O)C(=O)N1` (centres unmarked), the Kd at METTL3/14 turned out to be 7.27 µM. Regarding `Cc1ncsc1-c1ccc(CNC(=O)[C@@H]2C[C@@H](O)CN2C(=O)[C@H](C(C)C)N2Cc3ccccc3C2=O)c(OCCOCCOCCOCCNCc2nc3ccc(CNC(=O)c4cc(=O)n5ccccc5n4)cc3[nH]2)c1`, at METTL3/14, the Kd stood at 3.94 µM. `Cc1ncsc1-c1ccc(CNC(=O)[C@@H]2C[C@@H](O)CN2C(=O)[C@@H](NC(=O)CCOCCOCCNCc2nc3ccc(CNC(=O)c4cc(=O)n5ccccc5n4)cc3[nH]2)C(C)(C)C)cc1`: the Kd on METTL3/14 turned out to be 12.5 µM. As to `O=C1CCC(N2C(=O)c3cccc(OCCOCCOCCOCCOCCOCCNCc4nc5ccc(CNC(=O)c6cc(=O)n7ccccc7n6)cc5[nH]4)c3C2=O)C(=O)N1` (centres unmarked), the Kd at METTL3/14 was found to be 6.13 µM; at human CRBN it was 2980 nM. For `Cc1ncsc1-c1ccc(CNC(=O)[C@@H]2C[C@@H](O)CN2C(=O)[C@H](C(C)C)N2Cc3ccccc3C2=O)c(OCCOCCOCCOCCOCCOCCNCc2nc3ccc(CNC(=O)c4cc(=O)n5ccccc5n4)cc3[nH]2)c1`, on METTL3/14, the Kd was determined as 5.15 µM.

With `O=C1CCC(N2C(=O)c3cccc(OCCOCCOCCNCc4nc5ccc(CNC(=O)c6cc(=O)n7ccccc7n6)cc5[nH]4)c3C2=O)C(=O)N1` (centres unmarked), the equilibrium dissociation constant (Kd) on METTL3/14 stood at 10.6 µM. `O=C1CCC(N2C(=O)c3ccc(OCCOCCOCCOCCOCCOCCNCc4nc5ccc(CNC(=O)c6cc(=O)n7ccccc7n6)cc5[nH]4)cc3C2=O)C(=O)N1` (centres unmarked): the Kd at METTL3/14 stood at 31.9 µM. The same measure, in the same setting: under `Cc1ncsc1-c1ccc(CNC(=O)[C@@H]2C[C@@H](O)CN2C(=O)[C@@H](NC(=O)CCc2ccc(-c3cc(-c4cn(Cc5cn6cc(CN7CCC(C)(C)CC7)ccc6n5)nn4)c4cn[nH]c4c3)cc2)C(C)(C)C)cc1` stands 0.263 µM. Take `COCCOCCOCCOCCNC(=O)CC1(CNCc2nc3ccc(CNC(=O)c4cc(=O)n5ccccc5n4)cc3[nH]2)CCCCC1`: the Kd on METTL3/14 amounted to 0.433 µM.

Regarding `Cc1ncsc1-c1ccc(CNC(=O)[C@@H]2C[C@@H](O)CN2C(=O)[C@@H](NC(=O)CCc2ccc(C#Cc3ccc(COc4cncc(C(=O)NCc5ccc6cc(CN7CCC(C)(C)CC7)[nH]c6c5)c4)cc3)cc2)C(C)(C)C)cc1`, the dissociation constant Kd on METTL3/14 came out at 0.158 µM. On to `O=C1CCC(N2C(=O)c3ccc(OCCOCCOCCNCc4nc5ccc(CNC(=O)c6cc(=O)n7ccccc7n6)cc5[nH]4)cc3C2=O)C(=O)N1` (centres unmarked), for which the Kd on METTL3/14 is 6.44 µM; on human CRBN it was 2200 nM.

As for `O=C1CCC(N2C(=O)c3cccc(OCCOCCOCCOCCOCCNCc4nc5ccc(CNC(=O)c6cc(=O)n7ccccc7n6)cc5[nH]4)c3C2=O)C(=O)N1` (centres unmarked), the Kd on METTL3/14 stood at 10.6 µM.

Regarding `O=C1CCC(N2C(=O)c3cccc(OCCOCCNCc4nc5ccc(CNC(=O)c6cc(=O)n7ccccc7n6)cc5[nH]4)c3C2=O)C(=O)N1` (centres unmarked), the Kd on METTL3/14 is 8.06 µM. Regarding `Cc1ncsc1-c1ccc(CNC(=O)[C@@H]2C[C@@H](O)CN2C(=O)[C@@H](NC(=O)CCOCCOCCNC(=O)CC2(CNCc3nc4ccc(CNC(=O)c5cc(=O)n6ccccc6n5)cc4[nH]3)CCCCC2)C(C)(C)C)cc1`, on METTL3/14, the Kd amounted to 0.429 µM. For `Cc1ncsc1-c1ccc(CNC(=O)[C@@H]2C[C@@H](O)CN2C(=O)[C@@H](NC(=O)CCCOc2ccc(-c3cc(-c4cn(Cc5cn6cc(CN7CCC(C)(C)CC7)ccc6n5)nn4)c4cn[nH]c4c3)cc2)C(C)(C)C)cc1`, the equilibrium dissociation constant (Kd) on METTL3/14 was 2.48 µM.

Take `Cc1ncsc1-c1ccc(CNC(=O)[C@@H]2C[C@@H](O)CN2C(=O)[C@@H](NC(=O)CCOCCOCCOCCNC(=O)CC2(CNCc3nc4ccc(CNC(=O)c5cc(=O)n6ccccc6n5)cc4[nH]3)CCCCC2)C(C)(C)C)cc1`: the Kd on human VHL was 145 nM; at METTL3/14, 0.309 µM. Take `O=C1CCC(N2C(=O)c3ccc(OCCOCCNCc4nc5ccc(CNC(=O)c6cc(=O)n7ccccc7n6)cc5[nH]4)cc3C2=O)C(=O)N1` (centres unmarked): the Kd on METTL3/14 was over 100 µM. Still for that read-out and setting: under `O=C1CCC(N2C(=O)c3ccc(OCCOCCOCCOCCOCCNCc4nc5ccc(CNC(=O)c6cc(=O)n7ccccc7n6)cc5[nH]4)cc3C2=O)C(=O)N1` (centres unmarked) stands 19.6 µM; under `Cc1ncsc1-c1ccc(CNC(=O)[C@@H]2C[C@@H](O)CN2C(=O)[C@@H](NC(=O)CCOCCOCCOCCOCCNCc2nc3ccc(CNC(=O)c4cc(=O)n5ccccc5n4)cc3[nH]2)C(C)(C)C)cc1`, 37.6 µM; under `CC1(C)CCN(Cc2cc3ccc(CNC(=O)c4cc(Br)cc5[nH]ncc45)cc3[nH]2)CC1`, 0.0542 µM. As for `Cc1ncsc1-c1ccc(CNC(=O)[C@@H]2C[C@@H](O)CN2C(=O)[C@H](C(C)C)N2Cc3ccccc3C2=O)c(OCCOCCOCCOCCOCCNCc2nc3ccc(CNC(=O)c4cc(=O)n5ccccc5n4)cc3[nH]2)c1`, the Kd at METTL3/14 turned out to be 7.5 µM. For the compound `Cc1ncsc1-c1ccc(CNC(=O)[C@@H]2C[C@@H](O)CN2C(=O)[C@@H](NC(=O)CCOCCOCCOCCOCCOCCNCc2nc3ccc(CNC(=O)c4cc(=O)n5ccccc5n4)cc3[nH]2)C(C)(C)C)cc1`, the Kd on METTL3/14 was determined as 16.3 µM. For `O=C1CCC(N2C(=O)c3cccc(OCCOCCOCCOCCNCc4nc5ccc(CNC(=O)c6cc(=O)n7ccccc7n6)cc5[nH]4)c3C2=O)C(=O)N1` (centres unmarked), the Kd on METTL3/14 came to 26.5 µM.
